Assays:
[1] = test system: NCI-H295R; assay: ExcessHSA synergy score with TAK-243; higher = less synergy (negative = synergistic); settings: combined with: TAK-243 (MLN-7243) matrix, 9-point 1:2 dilution
Protocol: (§1)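 NCATS 10x10 matrix combination screen of 107 drugs with TAK-243 (MLN-7243, NCGC00386449-04) in ACC cells. Each drug was tested at 9 points with 1:2 dilution; viability was read by CellTiter-Glo as in the single-agent screen. Synergy is scored as ExcessHSA (sum of excess over highest single agent; negative = synergy) and the Beta interaction parameter (<1 synergy).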

[2] = test system: CU-ACC1; assay: as above; settings: combined with: TAK-243 (MLN-7243) matrix, 9-point 1:2 dilution
Protocol: as §1

[3] = test system: NCI-H295R; assay: AC50 viability; higher = less potent
Summary of the method: (§2)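 Library compounds were tested at 11 concentrations against three adrenocortical carcinoma cell lines in 1,536-well plates. CellTiter-Glo luminescence was read after 48 h and normalised per plate to vehicle and empty-well controls. Only inhibitory or non-responding curve classes from fitted concentration-response curves contributed AC50 and area under the curve.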

[4] = test system: CU-ACC1; assay: AC50 viability; higher = less potent
Summary of the method: as §2

[5] = test system: NCI-H295R; assay: area under concentration-response curve (viability) (AUC (a.u.)); higher = less active
Summary of the method: as §2

[6] = test system: CU-ACC1; assay: as above
Summary of the method: as §2

[7] = test system: CU-ACC2; assay: as above
Summary of the method: as §2

Compound	ExcessHSA synergy score with TAK-243 [1]	ExcessHSA synergy score with TAK-243 [2]	AC50 viability [3] [µM]	AC50 viability [4] [µM]	area under concentration-response curve [5]	area under concentration-response curve [6]	area under concentration-response curve [7]
NCc1ccc(OCCCc2sc(-c3ccc4c(c3)/C(=N/Nc3nc5ccccc5s3)CCC4)nc2C(=O)O)cc1 [WEHI-539]	86	-136	–	–	–	–	–
NCc1ccc(OCCCc2sc(-c3ccc4c(c3)/C(=N/Nc3nc5ccccc5s3)CCC4)nc2C(=O)O)cc1 (48 h)	–	–	7.42	8.33	341	266	328
